Laboratory results reported in PMC12579162, “Synthesized Depside Molecules Suppress the Progression of Colorectal Cancer by Binding VDAC1/PHB/MMP9 Being at the Crossroads of Stemness, Motility, Apoptosis, and Metabolism” (MedComm, 2025).

Tests used:
[1] = test system: CSC221 cells; test: Spheroid formation assay, CSC221; assay type: cell-based, human; conditions: CSC221, 10, 25, and 50 µg/mL, 2 weeks
Protocol: Monolayer cells were separated into single‐cell suspensions at around 70% confluence using a solution of trypsin. After that, the cells were added to N2‐supplemented DMEM/F12 that contained human basal fibroblast growth factor and human recombinant epidermal growth factor. Cells seeded at a density of 5 × 10^3 cells/well in ultra‐low attachment 24‐well plates (Corning Inc., Corning, NY, USA). After 10–14 days of culture, spheres were quantitated by inverted phase contrast microscopy. The relative sphere formation ability was calculated through the IMT iSolution software (IMT iSolution Inc., Northampton, NJ, USA) measuring the pixel intensity of the sphere area randomly in each plate.

[2] = test system: CSC221 cells; test: MTT cell viability, CSC221; assay type: cell-based, human; conditions: CSC221, MTT assay
Protocol: Cells (3 × 10^3 cells/well) were seeded on a 96‐well plate, grown overnight, and then treated with compounds at indicated concentrations for 48 h. After incubation with MTT for 4 h at 37°C, cells were lysed with 150 µL of DMSO (Sigma–Aldrich, St. Louis, USA). Absorbance was measured at 570 nm on a microplate reader with the Gen5 software (v.2.03.1; BioTek, Winooski, VT, USA).

cetuximab: EGFR‐targeted therapy approved by the United States Food and Drug Administration in 2004 [reference compound]
spheroid formation, single treatment [1]: significantly induced spheroid formation
cytotoxic effect, treatment alone [2]: did not show cytotoxic effects
